US10426772B2, “Use of ergot alkaloids as an anthelmintic agent” (priority 2016, dated 2019)

Amino acid sequences for entries named in this document (tags omitted). Residues count along the entry.
UniProt P34969, 1-445 isoform P34969-2: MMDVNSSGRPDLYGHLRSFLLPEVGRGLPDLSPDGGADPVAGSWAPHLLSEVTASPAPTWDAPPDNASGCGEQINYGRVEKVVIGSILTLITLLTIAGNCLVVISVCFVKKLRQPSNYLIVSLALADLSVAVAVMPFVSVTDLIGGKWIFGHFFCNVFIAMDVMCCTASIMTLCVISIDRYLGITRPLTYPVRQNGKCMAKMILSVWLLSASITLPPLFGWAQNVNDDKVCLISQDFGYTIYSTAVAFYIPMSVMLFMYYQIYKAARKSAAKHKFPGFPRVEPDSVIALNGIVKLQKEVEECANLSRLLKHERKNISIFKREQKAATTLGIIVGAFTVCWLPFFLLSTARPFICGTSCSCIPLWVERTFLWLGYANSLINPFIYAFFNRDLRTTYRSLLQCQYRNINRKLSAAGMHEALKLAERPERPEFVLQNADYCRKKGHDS

Target: T1, Hs.5HT7R (Homo sapiens, UniProt P34969)
T1 construct: host or cells: HEK293 (ATCC CRL-1573.3), transient, pCS2(−), co-transfected with GloSensor
Assay: GloSensor cAMP assay, HEK293 cells transiently transfected with Hs.5HT7R
Format: cell-based
Conditions: FIG. 7
Description: HEK293 cells (ATCC CRL-1573.3) were cultured in DMEM supplemented with 10% fetal bovine serum (FBS), penicillin (100 units/mL), streptomycin (100 μg/mL), and L-glutamine (290 μg/mL). Cells were transiently transfected (ViaFect, Promega) as per the manufacturer's protocol at a density of 2×10^6 cells per T-25 cell-culture flask. Cells were transfected with plasmids encoding GloSensor (Promega) and either Sm.5HTR, (Smp_126730, GenBank accession number KF444051.1) or Sm.5HTRL (KX150867), both GPCRs being codon optimized for mammalian expression, or Hs.5HT7a (GenBank accession number NM_000872.4, R&D Systems) subcloned into pCS2(−). Cell culture reagents were from Invitrogen. Epitope tagged constructs were used to verify expression, and untagged constructs used for all luminescence assays.
For assays performed on adherent cells, HEK-293 cells were transferred one day post transfection to 96 well, solid white plates (Corning, cat #3917) coated with 0.01% poly-L-lysine (Sigma Aldrich) at a density of 5×10^4 cells/well in DMEM supplemented with 1% dialyzed FBS (Gibco). […] Plates were allowed to equilibrate at room temperature for two hours prior to performing luminescence assays (GloMax-Multi Detection System plate reader, Promega). […]
The protocol for screening is shown schematically in FIG. 5A. […] Luminescence was then read at a fixed time point (t=60 minutes, FIG. 5A). […]

In the case of CC1CCN(CC[C@H]2CCCN2S(=O)(=O)c2cccc(O)c2)CC1 [SB269970], the “inhibition of Hs.5HT7R, in words” value is reported as “potent inhibitors of Hs.5HT7R”.
